Assay [1] has as its target T1, rSERT (Rattus norvegicus, UniProt P31652).
T1 construct: expressed in transfected cells; host or cells: T-REx-SERT cells (T-REx 293 based, tetracycline-inducible), gift of C.G. Tate
As to the kind of experiment: PAL of 17 in living T-REx-SERT cells followed by CuAAC rhodamine labelling, with competitor. In kind it is cell-based. To be noted: 17 10 μM, equimolar paroxetine (10μM).

Sequences of proteins named here, by UniProt entry; tags and fusion partners are left off.
UniProt P31652, whole entry: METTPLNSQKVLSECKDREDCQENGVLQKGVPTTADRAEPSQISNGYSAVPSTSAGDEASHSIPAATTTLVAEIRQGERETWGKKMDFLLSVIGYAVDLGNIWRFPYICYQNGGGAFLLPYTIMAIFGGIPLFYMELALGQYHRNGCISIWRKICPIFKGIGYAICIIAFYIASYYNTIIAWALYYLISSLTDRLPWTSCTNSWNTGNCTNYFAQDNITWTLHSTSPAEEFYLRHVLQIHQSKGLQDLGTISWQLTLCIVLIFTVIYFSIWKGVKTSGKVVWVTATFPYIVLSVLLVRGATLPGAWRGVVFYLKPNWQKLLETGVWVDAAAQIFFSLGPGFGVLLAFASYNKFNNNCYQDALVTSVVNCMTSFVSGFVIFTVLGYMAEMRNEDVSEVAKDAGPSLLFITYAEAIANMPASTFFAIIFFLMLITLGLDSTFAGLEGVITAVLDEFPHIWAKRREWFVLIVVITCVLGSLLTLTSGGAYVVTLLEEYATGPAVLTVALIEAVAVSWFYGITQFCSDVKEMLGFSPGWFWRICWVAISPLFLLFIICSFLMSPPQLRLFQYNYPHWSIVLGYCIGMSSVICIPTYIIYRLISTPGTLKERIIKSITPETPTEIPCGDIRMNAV

Assay [2] concerns the target T1, rSERT. As to the kind of experiment: Radioligand binding assay (RBA), competition with [3H]-citalopram, membranes of T-REx-SERT cells.
Assay [3] has as its target T1, rSERT. As to the kind of experiment: PAL and CuAAC fluorescence assay of 17 on rSERT-enriched material immobilized on ANTI-FLAG M2 affinity gel, with competitors. To be noted: 17 1 μM; competitor 1 mM (1000 fold molar excess); PAL then CuAAC rhodamine fluorescence. In kind it is binding.

The structures appear in SMILES notation.

Usually IC50 stands for the concentration that inhibits the measured activity by half. A low value points to greater potency. For orientation: Ki means the equilibrium dissociation constant of an inhibitor or competing ligand from its target. A higher Ki goes with lower affinity. As to `Fc1ccc([C@@H]2CCNC[C@H]2COc2ccc3c(c2)OCO3)cc1` [Paroxetine, paroxetine, reference compound], the “decrease of fluorescent signal of 17-rSERT by competitor in living cells” value on rSERT [1] is 60–70%. On rSERT [2], this compound gave an IC50 of 95.5 pM and a Ki of 70 pM. For the same compound, the “decrease in binding signal of 17 at enriched rSERT by competitor” value at rSERT [3] is on record as 60%.
